# Target: human AChE (Homo sapiens, UniProt P22303)
# Experiment: AChE reactivation, modified Ellman's assay
# Assay type: biochemical
# Conditions: sarin adducted AChE, FIG. 22 and 27
structure (smiles),measurement,value
C[C@@H](CN1CCCc2ccccc2C1)NC(=O)/C=N/O [LLNL-02],reactivation power of adducted AChE,less reactivation power than LLNL-03

# — US11186548B2 (priority 2017, dated 2021)
